Where “and” joins values, the source holds several entries; their conditions need not be identical. Identical values can stand only once. Each block holds one molecule with its values, some of them ahead of it.
What was measured:
[1] = test system: hepatocytes;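 for qRT-PCR log2fc, CYP7A1: Compound-treated versus DMSO control, target Ct normalized to GAPDH or β-actin reference (ΔΔCt method), positive values mean higher expression than DMSO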
[2] = test system: hepatocytes; remark: listed apart in the source;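 for qRT-PCR log2fc, CYP7A1: Compound-treated versus DMSO control, target Ct normalized to GAPDH or β-actin reference (ΔΔCt method), positive values mean higher expression than DMSO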
[3] = test system: CB-CI-IRES-CD34+ primary cells; assay: ATP cell viability assay (IC50) in CD34+ cells; conditions: for Amount of ATP, cell viability assay, Avg.: average of triplicate; for Amount of ATP, cell viability assay: single replicates 1-3
[4] = test system: TF1 cells; assay: ATP cell viability assay (IC50) in TF1 cells; conditions: for Amount of ATP, cell viability assay, Avg.: average; for Amount of ATP, cell viability assay: single replicates

qRT-PCR log2fc, CYP7A1 [1]: −1.65
Cuffdiff log2fc, CYP7A1 [2]: −1.27
SMILES: CO[C@H]1/C=C/O[C@@]2(C)Oc3c(C)c(O)c4c(O)c(c(/C=N/N5CCN(C)CC5)c(O)c4c3C2=O)NC(=O)/C(C)=C\C=C\[C@H](C)[C@H](O)[C@@H](C)[C@@H](O)[C@@H](C)[C@H](OC(C)=O)[C@@H]1C [MT-901, Rifampicin]

SMILES: COc1ccc(C2=N[C@@H](c3ccc(Cl)cc3)[C@@H](c3ccc(Cl)cc3)N2C(=O)N2CCNC(=O)C2)c(OC(C)C)c1 [Nutlin 3a]
Amount of ATP, cell viability assay, Avg. ([3]; 0.08625 μM): 582565
Amount of ATP, cell viability assay ([3]; 0.08625 μM): 588229 and 590199 and 569267
Amount of ATP, cell viability assay, Avg. ([3]; 0.7 μM): 577863
Amount of ATP, cell viability assay ([3]; 0.7 μM): 603745 and 579055 and 550788
Amount of ATP, cell viability assay, Avg. ([3]; 3.125 μM): 523052
Amount of ATP, cell viability assay ([3]; 3.125 μM): 539839 and 515592 and 513726
Amount of ATP, cell viability assay, Avg. ([3]; 6.252 μM): 481328
Amount of ATP, cell viability assay ([3]; 6.252 μM): 481101 and 491124 and 471758
Amount of ATP, cell viability assay, Avg. ([3]; 12.5 μM): 457194
Amount of ATP, cell viability assay ([3]; 12.5 μM): 496305 and 442760 and 432516
Amount of ATP, cell viability assay, Avg. ([3]; 25 μM): 458416
Amount of ATP, cell viability assay ([3]; 25 μM): 465507 and 460965 and 448776
Amount of ATP, cell viability assay, Avg. ([3]; 50 μM): 449298
Amount of ATP, cell viability assay ([3]; 50 μM): 463223 and 463614 and 421058
Amount of ATP, cell viability assay, Avg. ([3]; 100 μM): 404620
Amount of ATP, cell viability assay ([3]; 100 μM): 429802 and 424673 and 359384
Amount of ATP, cell viability assay, Avg. ([4]; 0.08625 μM): 1380642
Amount of ATP, cell viability assay ([4]; 0.08625 μM): 1477730 and 1426195 and 1238001
Amount of ATP, cell viability assay, Avg. ([4]; 0.7 μM): 1370746
Amount of ATP, cell viability assay ([4]; 0.7 μM): 1465593 and 1321104 and 1325541
Amount of ATP, cell viability assay, Avg. ([4]; 3.125 μM): 1387602
Amount of ATP, cell viability assay ([4]; 3.125 μM): 1326585 and 1450508 and 1385714
Amount of ATP, cell viability assay, Avg. ([4]; 6.252 μM): 1352389
Amount of ATP, cell viability assay ([4]; 6.252 μM): 1460412 and 1231790 and 1364965
Amount of ATP, cell viability assay, Avg. ([4]; 12.5 μM): 1377862
Amount of ATP, cell viability assay ([4]; 12.5 μM): 1340587 and 1403123 and 1389877
Amount of ATP, cell viability assay, Avg. ([4]; 25 μM): 1474911
Amount of ATP, cell viability assay ([4]; 25 μM): 1518028 and 1486252 and 1420453
Amount of ATP, cell viability assay, Avg. ([4]; 50 μM): 1260586
Amount of ATP, cell viability assay ([4]; 50 μM): 1246588 and 1204019 and 1331152
Amount of ATP, cell viability assay, Avg. ([4]; 100 μM): 25091
Amount of ATP, cell viability assay ([4]; 100 μM): 23934 and 23542 and 27797

Source: US20210254056A1, “IDENTIFICATION AND TARGETED MODULATION OF GENE SIGNALING NETWORKS” (CAMP4 THERAPEUTICS CORPORATION, priority 2017, published 2021)
